Measured values: US20250034275A1 (CHIA TAI TIANQING PHARMACEUTICAL GROUP, published 2025)

T1: human Trop-2 (on the surface of human cell lines) (human, UniProt P09758 27-323)
T1 construct: Endogenous Trop-2 on NCI-H322, Capan-1, PC-3, HUVEC, OVCAR-3, HCC38 and HCC1806 cells; also called TACSTD2
T1 sequence: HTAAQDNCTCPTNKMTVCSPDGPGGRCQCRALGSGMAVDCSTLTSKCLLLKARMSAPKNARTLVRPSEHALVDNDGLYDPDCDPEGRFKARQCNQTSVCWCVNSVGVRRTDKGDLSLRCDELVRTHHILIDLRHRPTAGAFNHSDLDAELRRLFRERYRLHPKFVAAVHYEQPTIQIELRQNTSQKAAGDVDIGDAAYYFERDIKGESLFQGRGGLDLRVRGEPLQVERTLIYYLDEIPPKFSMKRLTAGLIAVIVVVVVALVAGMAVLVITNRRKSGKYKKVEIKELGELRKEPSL

T2: human Trop-2-His (human, UniProt P09758 27-274, limits assumed)
T2 construct: by analogy with the macaque construct it is probably the extracellular domain with a His tag; also called Trop-2-His protein
T2 sequence: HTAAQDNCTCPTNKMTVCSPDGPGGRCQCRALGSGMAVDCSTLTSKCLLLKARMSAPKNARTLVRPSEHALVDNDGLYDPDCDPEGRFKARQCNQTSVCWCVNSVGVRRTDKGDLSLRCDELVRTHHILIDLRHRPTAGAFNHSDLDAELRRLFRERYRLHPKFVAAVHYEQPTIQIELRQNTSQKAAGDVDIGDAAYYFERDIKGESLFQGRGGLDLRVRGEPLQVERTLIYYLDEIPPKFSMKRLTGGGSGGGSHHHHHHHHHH


Experiments:
[1] = molecular target: T1, human Trop-2 (on the surface of human …); test: flow cytometry, HCC1806 cells
Description: (§1) Tumor cells expressing Trop-2 were prepared into a cell suspension (0.5-1×10⁶ cells/mL) using the FACS buffer (Miltenyi Biotec, 130-091-221), and the cell suspension was added to a 96-well V-bottom plate at 100 μL/well. After centrifugation and removal of the supernatant, the test antibodies diluted with the FACS buffer to different concentrations (0.006 nM-100 nM) were each added at 50 μL/well. The mixture was incubated in the dark in a 4° C. refrigerator for 1 h. The plate was then washed 3 times with the FACS buffer by centrifugation at 300 g, and Alexa Fluor 488 goat anti-human IgG (H+L) (Bio-legend, 409304, 1:500 dilution) at working concentration was added. The mixture was incubated in the dark in a 4° C. refrigerator for 40 min. The plate was then washed 3 times with the FACS buffer by centrifugation at 300 g, the geometric mean fluorescence intensity (MFI) was measured on a Sartorius iQue3 flow cytometer, and the binding EC₅₀ values of the antibodies for tumor cells with different Trop-2 expression levels were calculated

[2] = molecular target: T1, human Trop-2 (on the surface of human …); test: cell-based or functional assay
human Trop-2-His = molecular target: T2, human Trop-2-His; test: ELISA, plate-coated human Trop-2-His
Description: After the liquid was discarded, 2% BSA (SIGMA, B2064-100G) diluted with PBS was added at 300 μL/well for blocking, and the mixture was incubated at 37° C. for 2 h. After the blocking was completed, the blocking buffer was discarded, the plate was washed 3 times with PBST buffer (pH 7.4 PBS containing 0.1% tween-20), the antibody solution diluted in a gradient was added at 100 μL/well, and the mixture was incubated at 37° C. for 1 h. After the incubation was completed, the plate was washed 3 times with PBST, the goat anti-human IgG (H+L) (JacksonImmunoResearch, 109-035-098, 1:5000 dilution) was added at 100 μL/well, and the mixture was incubated at 37° C. for 1 h. After the plate was washed 3 times with PBST, a TMB chromogenic substrate (TIANGEN, PA107-01) was added at 100 μL/well. The mixture was incubated at room temperature for 10-15 min, and then 1 M H₂SO₄ was added at 50 μL/well to terminate the reaction. The absorbance values at 450 nm were taken using a microplate reader. The binding curves of antibodies for antigen were fitted using software, and the EC₅₀ values were calculated. The binding activity of the antibodies for the proteins is shown in Table 5-1, Table 5-2, Table 5-3, and FIG. 1.

[3] = molecular target: T1, human Trop-2 (on the surface of human …); test: cell-based or functional assay; remark: listed apart in the source
[4] = molecular target: T1, human Trop-2 (on the surface of human …); test: flow cytometry, OVCAR-3 cells
Description: as §1

| Binder | EC50 [1] | ADCC, PBMC killing (LDH), H322, EC50 [2] | ADCC, PBMC killing (LDH), H322, Maximum killing (%) [2] | ADCC, PBMC killing (LDH), HCC1806, EC50 [2] | ADCC, PBMC killing (LDH), HCC1806, Maximum killing (%) [2] | EC50 (human Trop-2-His) | ADCC reporter (Jurkat-CD16a v158-NFAT-luciferase), target cell H322, EC50 [3] | ADCC reporter (Jurkat-CD16a v158-NFAT-luciferase), target cell HCC1806, EC50 [3] | EC50 [4] |
| --- | --- | --- | --- | --- | --- | --- | --- | --- | --- |
| hz-Ab35-1.3 (antibody, human IgG1, kappa, V domains shown) VH: QVQLVQSGAEVKKPGASVKVSCKASGYTFTSSDINWVRQRPGQGLEWMGWIYPRDGSKKYNEKFKGRVTMTVDTSTSTVYMELSSLRSEDTAVYYCATRFATVVSNYGLDPWGQGTLVTVSS VL: EIVLTQSPATLSLSPGERATLSCSASSSVNYIYWYQRKPGQAPRLLIYDTSNLASGIPARFSGSGSGTDFTLTISSLEPEDFAVYYCQQWNSYPLTFGQGTKVEIKR | 0.54 nM | 0.02 nM | 51.5% | 0.04 nM | 35.7% | 0.042 nM | 0.11 nM | 0.2 nM | 0.64 nM |
| hz-Ab35-1.1 (antibody, human IgG1, kappa, V domains shown) VH: QVQLVQSGAEVKKPGASVKVSCKASGYTFTSSDINWVRQRPGQGLEWMGWIYPRDGSKKYAQKFQGRVTMTVDTSTSTVYMELSSLRSEDTAVYYCATRFATVVSNYGLDPWGQGTLVTVSS VL: EIVLTQSPATLSLSPGERATLSCSASSSVNYIYWYQRKPGQAPRLLIYDTSNLASGIPARFSGSGSGTDFTLTISSLEPEDFAVYYCQQWNSYPLTFGQGTKVEIKR | 0.8 nM | 0.02 nM | 53% | 0.04 nM | 38.5% | 0.052 nM | 0.09 nM | 0.18 nM | 0.83 nM |
| hz-Ab35-1.2 (antibody, human IgG1, kappa, V domains shown) VH: QVQLVQSGAEVKKPGASVKVSCKASGYTFTSSDINWVRQRPGQGLEWMGWIYPRDGSKKYNEKFKGRVTMTVDTSTSTVYMELSSLRSEDTAVYYCARRFATVVSNYGLDPWGQGTLVTVSS VL: EIVLTQSPATLSLSPGERATLSCSASSSVNYIYWYQRKPGQAPRLLIYDTSNLASGIPARFSGSGSGTDFTLTISSLEPEDFAVYYCQQWNSYPLTFGQGTKVEIKR | 0.62 nM | 0.02 nM | 51.5% | 0.06 nM | 34.9% | 0.035 nM | 0.1 nM | 0.28 nM | 0.57 nM |
